Antibody variant affinities, Ab-14 light chain, assay B

All variants were tested on one target, the spike HR2 peptide PDVDLGDISGINAS (SARS-CoV-2).

Parent: Ab-14, a human scFv built as VH, a (GGGGS)3 linker, VL. Only the CDRs of the light chain vary.
VH: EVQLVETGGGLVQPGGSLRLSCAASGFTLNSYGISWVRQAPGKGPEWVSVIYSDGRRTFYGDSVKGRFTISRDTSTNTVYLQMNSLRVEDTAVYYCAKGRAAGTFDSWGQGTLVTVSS
VL: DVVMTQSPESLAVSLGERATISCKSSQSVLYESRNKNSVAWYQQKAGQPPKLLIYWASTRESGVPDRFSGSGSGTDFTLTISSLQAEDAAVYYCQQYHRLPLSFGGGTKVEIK

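Phage display of a naive human antibody library on the peptide gave the parent. These sequences belong to a second round, designed from the earlier measurements on random variants of the parent. Group labels follow the data file (Ctrl: baseline library sampled from a position-specific scoring matrix, with some repeated check sequences; En: ensemble of fine-tuned language models; GP: Gaussian process model; HC: hill climbing; Gen: genetic algorithm; Gibbs: Gibbs sampling; a sequence that several methods proposed may carry one label only). The assay is AlphaSeq: two haploid yeast populations carry antibody and antigen on their surface. The frequency of each diploid, read from paired DNA barcodes, reflects how well the two displayed proteins bind. The ratio of observed to expected reads was calibrated, replicate by replicate, on BCL2-family standards whose Kd was known from biolayer interferometry. Mating was done six times.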

The parent's light chain CDRs are KSSQSVLYESRNKNSVA, WASTRES, QQYHRLPLS; each variant's own CDRs replace them letter for letter.
This list holds designs with more than six substitutions.
Each Kd is an estimate from the mating assay, the geometric mean of the replicates in which the pair was seen; lower is stronger.
Where no diploid with the target was found in any replicate, the entry reads "nd": below detection, most likely a poor binder, though not proof of it.
The authors averaged sequences with at least three values out of six and counted those with two or fewer as poor binders.
A sequence measured in both rounds can read differently, since the two assays cover different ranges.
As a blank, each scFv also met three strains without target: over all light chain designs, 4% of these pairings were detected, typically at 430 nM and seldom below 38 nM.
The parent sequence was in this pool as ten entries: three were never detected, three once, and four in most replicates, with averages from 2.2 nM to 240 nM.

CDR-L1	CDR-L2	CDR-L3	group	apparent Kd	detected
KLYEMLAVTMEHIRNVA	DNSTREY	QQYNRLPLS	En_Gen	7.5 µM	4 of 6
MISQLMNLGQFAINSVA	QASIRNQ	QQYDRLPLI	En_Gen	45 nM	6 of 6
MISQLMNMGQFAINSVA	QATIRNS	QQYDRLPLA	En_Gen	78 nM	5 of 6
KMRVSLQQGIYRADSIA	STDIRVL	QQYYHLPLA	En_Gibbs	21 nM	6 of 6
KLLDQADGWTRNERNIA	DADHRGA	QQYSHLPLC	En_Gibbs	980 pM	6 of 6
TLGTSTLEESRNKNSVA	EMSLRES	QSYNRLPLS	En_HC	9.9 nM	6 of 6
HVAMECAEEKNKYYNIA	DASMRLA	QQYVRLPLG	En_Gibbs	2.0 nM	6 of 6
KLSSSWLYESRNMNSVA	QASQRLR	QQYHRLPLS	GP_Gibbs	310 nM	4 of 6
KLSQLFYKESRKKNNVA	EMTTRMS	QQYDRLPLS	En_HC	1.9 nM	6 of 6
HITYGMYVSGRHHSSIA	QAETRAK	QQYDRLPLI	En_Gen	33 nM	6 of 6
HMSMLTLTGMRHRNSVA	QMTTREN	QQYDRLPLA	En_Gen	40 nM	6 of 6
SLAYTQHFGQTGEKAIA	EVATRCQ	QQYFRLPLG	En_Gibbs	6.4 nM	6 of 6
KITATMRFEQKNSNNIA	EVTLRSN	QQYYRLPLS	En_Gen	5.9 nM	6 of 6
KLSQGDWYQSRMDNSVA	DASTRES	QQYHRLPLS	GP_Gibbs	770 pM	6 of 6
KMSQSFLMEMRNGNSVA	NASKRES	QQYHRLPLS	GP_Gibbs	1.3 nM	6 of 6
KIAATVLYESGSANSVA	QNSTRES	QQYHRLPLS	En_HC	43 nM	6 of 6
HLSKPWQLGHPSTNAVA	NMDVTMT	QQYSRLPLS	En_Gibbs	2.1 nM	6 of 6
KLQTLTYTANIGENSVA	DANVHVD	QQYFRLPLS	En_Gibbs	11 nM	6 of 6
KSSQDVLRESRNKNSVA	WGSTRES	MQYVRLPND	Ctrl	92 nM	4 of 6
ALSQNGPQQHGMNDSIA	HSDQRLA	QQYYHLPLA	En_Gibbs	7.1 nM	6 of 6
KSSESELYEDRNQNSVA	SASQRLS	QQYHRLPLS	GP_Gibbs	1.0 nM	6 of 6
KISMSYRYESQETNSIA	EMSTREE	QSYHRLPLS	En_HC	25 nM	6 of 6
KMSMSWPYEDLMKNSVA	NASTRMQ	QQYHRLPLS	GP_Gibbs	2.1 nM	6 of 6
KISQLVNFEGKTKNSVA	QMSTRES	QQYDRLPLS	En_HC	6.8 nM	6 of 6
KIFQSVQYESRQKNSVA	NASDRMS	QQYHRLPLS	GP_Gibbs	970 pM	6 of 6
IFSQSVLMGNLTRNSVA	QASTRFN	QQYHRLPLI	En_HC	250 nM	5 of 6
KIGGVTNGISRQKNSVA	EQSTRED	QQYNRLPLS	En_HC	880 pM	6 of 6
RLNDYQYAITGDNYAIA	NARETLM	QQYMRLPLT	En_Gibbs	990 pM	6 of 6
HLLQTVMYGQSRRNSVA	HAVTREN	QQYHRLPLS	En_HC	nd	0 of 6
KMQQSEGMESRNVNSVA	HASQRLD	QQYHRLPLS	GP_Gibbs	880 pM	6 of 6
TISQSTYIESFNKNSVA	QTSTRME	QDYDRLPLS	En_HC	43 nM	1 of 6
TLYGLSNSMSINKNSVA	EMTTREK	QQYDRLPLI	En_Gen	61 nM	6 of 6
IMSDSQERDASRLNNIA	DDYTRAM	QQYARLPLS	En_Gibbs	9.4 nM	6 of 6
HITHGMYVKGRHHSSIA	QAETRAK	QQYDRLPLI	En_Gen	nd	0 of 6
KLGDMVHTESRNKNSIA	DMRNRES	QQYYRLPLS	En_HC	800 pM	6 of 6
QLEFRDVQGTANWHAIA	EASQLGQ	QQYFHLPLG	En_Gibbs	98 nM	4 of 6
HVSMLTLGGLKNRNSVA	QMTTREN	QQYDRLPLA	En_Gen	55 nM	6 of 6
TIADIMGHVSKQTNNVA	DQNTRGD	QQYNRLPLS	En_Gen	550 pM	6 of 6
IISQSMLYESATHNSIA	QTTTREE	QQYHHLPLI	En_HC	39 nM	6 of 6
HIQSNMFGFGGVANNVA	QTNTKMV	QQYSKLPLM	En_Gibbs	12 nM	6 of 6
KIQQSEQYESRNKNSVA	NASDRQS	QQYHRLPLS	GP_Gibbs	2.6 nM	6 of 6
TISQMTSLFSQTINNVA	EVSTREQ	QQYDRLPLT	En_Gen	1.9 nM	6 of 6
KCSQSVDYLDRNMNNVA	NASTRES	QDYHRLPLS	GP_Gibbs	250 pM	6 of 6
IISQVDGYLMHQTNSIA	DQTTRGS	QQYDRLPLS	En_HC	58 nM	6 of 6
KLEMDTLGQKPKQNNIA	AARVSWE	QQYYMLPLS	En_Gibbs	41 nM	6 of 6
HISQSTDLESVHKNSIA	DLMTRES	QQYHRLPLS	En_HC	2.2 nM	6 of 6
KLSQSVWMLSRNKWSVA	NASYRES	QQYHRLPLS	GP_Gibbs	1.3 nM	6 of 6
KIQHTHVGNEKKMESIA	QGDQRCQ	QSYDRLPLS	En_Gibbs	4.0 nM	6 of 6
HIGLATMLEETVRNSVA	NNSTRED	QQYDRLPLS	En_Gen	440 nM	6 of 6
KIGMTLNQLMHKKNNVA	DLVEREN	QQYFRLPLS	En_Gen	3.4 nM	6 of 6
TISQLMNMGQFAINSVA	QASIRNE	QQYDRLPLM	En_Gen	3.0 nM	6 of 6
KVQQSELGGSRNKWSVA	EASTRED	QQYHRLPLS	GP_Gibbs	3.6 nM	6 of 6
MVYQAAMMGGVARNSIA	NATMRPD	QQYHRLPLI	En_Gen	2.1 nM	6 of 6
KFSQSEDYESRNKWSVA	NAQTRMS	QQYHRLPLS	GP_Gibbs	1.5 nM	6 of 6
KLSMSVRMETFVKDNVA	ENSTRED	QDYHRLPLS	En_HC	1.7 µM	3 of 6
HIQDDAGGLSEQFDSVA	STEERSY	QQYHRLPLS	En_Gibbs	3.2 nM	6 of 6
KLSQSVLYQSQNKNNVA	NAQTRMS	QQYHRLPLS	GP_Gibbs	500 pM	6 of 6
KFSQSDPYEDGNKNSVA	NASTRCS	QQYHRLPLS	GP_Gibbs	10 nM	6 of 6
TISGVMQTVSHSKNNVA	EMTTREK	QQYVRLPLA	En_Gen	1.0 nM	6 of 6
MISQVMNMLTHTGNNVA	DLAERED	QQYFRLPLS	En_Gen	100 nM	2 of 6
KIGGVTNGISRNKNSVA	EQSTREQ	QQYNRLPLS	En_HC	4.5 nM	6 of 6
KGQQSQQYESQNWNSVA	NASYRES	QQYHRLPLS	GP_Gibbs	7.8 nM	6 of 6
QIYQAMHTLSQMKDNVA	DVNERGR	QQYYRLPLS	En_Gen	3.8 nM	6 of 6
KLSQITGHMSVSKNNVA	EMATREN	QQYDRLPLS	En_Gen	6.7 nM	6 of 6
ALREDFYQEQVEHSAIA	DGEHLNN	QQYSMLPLS	En_Gibbs	3.7 nM	6 of 6
KLQQWDLYESRNKNSVA	HASERES	QCYHRLPLS	GP_Gibbs	1.0 nM	6 of 6
KLQFLVLYESRNKNSVA	GASTRFS	QAYHRLPLS	GP_Gibbs	29 nM	4 of 6
VLAMGSYQKYRHENNIA	EANMRAQ	QQYNRLPFQ	En_Gibbs	950 pM	6 of 6
FLQGFGENSNRNSKNIA	SKETRQV	QQYMRLPLS	En_Gibbs	1.0 nM	6 of 6
KLRQSCEYEDRNKNSVA	MASQRCS	QQYHRLPLS	GP_Gibbs	1.5 nM	6 of 6
SLYEMSVELSGKTHSVA	DNSTRGD	QQYFRLPLD	En_Gen	8.2 nM	6 of 6
KIGHGLTTEMRNRNSVA	QTETRVQ	QHYHRLPLS	En_HC	35 nM	6 of 6
KLDLENGHEGKKGQNIA	EASTAGD	QSYWRLPLS	En_Gibbs	29 nM	5 of 6
KVSGQQLYSSRNKNQVA	DASTRES	QQYHRLPLS	GP_Gibbs	2.2 nM	6 of 6
HFSQMLEPGAQNFNAVA	HGDRVTE	QQYHKLPLM	En_Gibbs	860 nM	3 of 6
KLTSITGTEKVRGNNVA	EMETRES	QQYNRLPLS	En_Gen	2.0 nM	6 of 6
KVSGFMRGLMMRKDSIA	DNETRNS	QQYDRLPLS	En_Gen	17 nM	6 of 6
SITQLIAYGSRNKNSVA	QMSTRES	QQYDRLPLS	En_HC	6.9 nM	6 of 6
TISQMFLGMSRNRNSVA	QASTRCS	QSYDRLPLS	En_HC	8.8 nM	6 of 6
TISQMTSMFSQNINNVA	EVSTREK	QQYDRLPLA	En_Gen	3.3 nM	6 of 6

From the AlphaSeq antibody data of Li et al. 2023 (doi:10.1038/s41467-023-39022-2), copy in the FLAb collection.